For the assay, the target named is T1, 3-phosphoinositide-dependent protein kinase 1 (Homo sapiens, UniProt O15530).
T1 sequence (O15530 whole entry): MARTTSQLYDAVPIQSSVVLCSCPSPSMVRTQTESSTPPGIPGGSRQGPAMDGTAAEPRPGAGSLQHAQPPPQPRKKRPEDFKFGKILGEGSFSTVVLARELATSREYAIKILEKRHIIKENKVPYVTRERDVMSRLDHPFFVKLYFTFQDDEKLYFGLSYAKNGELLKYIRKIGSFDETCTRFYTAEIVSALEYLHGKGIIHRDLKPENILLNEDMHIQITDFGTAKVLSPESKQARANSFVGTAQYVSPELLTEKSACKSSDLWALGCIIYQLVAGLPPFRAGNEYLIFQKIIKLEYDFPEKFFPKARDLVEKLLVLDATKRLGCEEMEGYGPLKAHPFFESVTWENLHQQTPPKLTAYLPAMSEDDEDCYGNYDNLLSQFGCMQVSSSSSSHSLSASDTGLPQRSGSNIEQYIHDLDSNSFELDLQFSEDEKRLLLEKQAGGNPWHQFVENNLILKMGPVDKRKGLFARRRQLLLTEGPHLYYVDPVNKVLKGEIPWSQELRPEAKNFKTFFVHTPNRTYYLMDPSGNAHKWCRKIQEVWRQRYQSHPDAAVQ
In words: Inhibition of PDK1.

A word on the IC50: it is the midpoint of a concentration-inhibition curve. A higher IC50 goes with a need for much substance.

With `CCNc1cc(-c2ccc3c(N)[nH]nc3c2)nc(N)n1`, the half-inhibitory concentration (IC50) is 0.158 µM.

The values above are taken from ChEMBL document CHEMBL1765070, “Structure-based design of potent and selective 3-phosphoinositide-dependent kinase-1 (PDK1) inhibitors” (J Med Chem, 2011).
